Measurements published in ChEMBL document CHEMBL4433205, “Dual Pharmacophores Explored via Structure-Activity Relationship (SAR) Matrix: Insights into Potent, Bifunctional Opioid Ligand Design” (J Med Chem, 2019).

Protein sequences, listed by entry. Tags and fused reporters are not part of them.
UniProt P33533, whole entry: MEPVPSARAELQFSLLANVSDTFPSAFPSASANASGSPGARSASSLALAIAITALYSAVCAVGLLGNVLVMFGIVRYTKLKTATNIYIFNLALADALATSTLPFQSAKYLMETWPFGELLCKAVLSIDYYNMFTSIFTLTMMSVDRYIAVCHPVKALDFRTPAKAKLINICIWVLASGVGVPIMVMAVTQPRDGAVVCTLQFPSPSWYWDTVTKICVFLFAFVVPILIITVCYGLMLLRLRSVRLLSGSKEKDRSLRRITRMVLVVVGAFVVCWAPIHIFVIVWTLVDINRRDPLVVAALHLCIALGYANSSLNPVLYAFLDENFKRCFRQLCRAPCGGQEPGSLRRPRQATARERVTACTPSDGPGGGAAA

Assays:
[1] = target: Delta-type opioid receptor (Rattus norvegicus) (UniProt P33533); experiment: Agonist activity at rat delta opioid receptor expressed in rat C6 cell membranes assessed as stimulation of [35S]GTPgammaS binding incubated for 1 hr relative to DPDPE; type: functional
[2] = target: Delta-type opioid receptor (Rattus norvegicus) (UniProt P33533); experiment: Agonist activity at rat delta opioid receptor expressed in C6 cell membranes assessed as stimulation of [35S]GTPgammaS binding at 1 uM incubated for 1 hr relative to SNC80; type: functional
In short: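 Rat DOR in C6 glioma membranes, [35S]-GTPγS binding (0.1 nM, 30 μM GDP, 1 h, 25°C). SNC80 concentration–response run alone and with 1 μM test compound present; stimulation expressed relative to SNC80. Ke = compound concentration/(EC50 shift − 1). Mean of ≥3 assays in duplicate.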

| Compound | Efficacy [1] | Activity [2] |
| --- | --- | --- |
| Cc1cc(O)cc(C)c1C[C@H](N)C(=O)N[C@@H]1CCN(C(=O)c2ccccc2)c2ccc(Cc3cnc4ccccc4c3)cc21.O=C(O)C(F)(F)F | inactive | 100% |
| Cc1cc(O)cc(C)c1C[C@H](N)C(=O)N[C@@H]1CCN(C(=O)c2ccccc2)c2ccc(Cc3ccc4ccccc4c3)cc21.O=C(O)C(F)(F)F | inactive | 100% |

Activity calls are given as the source filed them. The rule behind the calls is not given here.
